For the first assay, the target named is HLA-A*0101 (Homo sapiens, UniProt P04439, A114D/A174V/A182V/D101N/D185E/E176A/E190D/L180R/Q94H/R68K/S129P/T187R/V100A/V91M/W191G). The assay is described as follows: Class I peptide-binding assay, A*0101. Particulars: A*[…], Table 18a, CEA-derived A1 binders.
`C[C@H](NC(=O)[C@H](CCC(N)=O)NC(=O)[C@@H](N)CCC(N)=O)C(=O)N[C@H](C(=O)N1CCC[C@H]1C(=O)NCC(=O)N1CCC[C@H]1C(=O)N[C@@H](C)C(=O)N[C@@H](Cc1ccc(O)cc1)C(=O)O)[C@@H](C)O` [compound 159]: the IC50 came to 10000 nM.

Take `CC(C)C[C@H](NC(=O)[C@@H]1CCCN1C(=O)[C@H](CO)NC(=O)[C@H](CC(=O)O)NC(=O)[C@@H](NC(=O)[C@@H]1CCCN1)[C@@H](C)O)C(=O)N[C@@H](CC(N)=O)C(=O)N[C@H](C(=O)N[C@@H](CO)C(=O)N[C@@H](Cc1ccc(O)cc1)C(=O)O)[C@@H](C)O` [compound 163]: the IC50 came to 266 nM.

`C[C@H](N)C(=O)N[C@@H](C)C(=O)N[C@@H](CO)C(=O)N[C@@H](CC(N)=O)C(=O)N1CCC[C@H]1C(=O)N1CCC[C@H]1C(=O)N[C@@H](C)C(=O)N[C@@H](CCC(N)=O)C(=O)N[C@@H](Cc1ccc(O)cc1)C(=O)O` [compound 164] returned an IC50 of 10000 nM.

`CC(C)[C@H](N)C(=O)N[C@H](C(=O)N[C@@H](CCCNC(=N)N)C(=O)N[C@@H](CC(N)=O)C(=O)N[C@@H](CC(=O)O)C(=O)N[C@H](C(=O)NCC(=O)N1CCC[C@H]1C(=O)N[C@@H](Cc1ccc(O)cc1)C(=O)O)C(C)C)[C@@H](C)O` [compound 168] displayed an IC50 of 10000 nM.

Turning to `CC(C)[C@H](N)C(=O)N[C@H](C(=O)N[C@@H](CC(=O)O)C(=O)N[C@@H](CC(N)=O)C(=O)N[C@@H](CC(=O)O)C(=O)N[C@H](C(=O)NCC(=O)N1CCC[C@H]1C(=O)N[C@@H](Cc1ccc(O)cc1)C(=O)O)C(C)C)[C@@H](C)O` [compound 169], the IC50 turned out to be 4.1 nM.

In the case of `CC[C@H](C)[C@H](NC(=O)[C@@H](NC(=O)[C@@H]1CCCN1)[C@@H](C)O)C(=O)N[C@@H](CO)C(=O)N1CCC[C@H]1C(=O)N[C@@H](CO)C(=O)N[C@@H](Cc1ccc(O)cc1)C(=O)N[C@H](C(=O)N[C@@H](Cc1ccc(O)cc1)C(=O)N[C@@H](Cc1ccc(O)cc1)C(=O)O)[C@@H](C)O` [compound 171], the IC50 was found to be 325 nM.

Regarding `C[C@@H](O)[C@H](NC(=O)[C@H](Cc1ccc(O)cc1)NC(=O)[C@H](CO)NC(=O)[C@@H]1CCCN1C(=O)[C@H](CO)NC(=O)[C@H](CC(=O)O)NC(=O)[C@@H](NC(=O)[C@@H]1CCCN1)[C@@H](C)O)C(=O)N[C@@H](Cc1ccc(O)cc1)C(=O)N[C@@H](Cc1ccc(O)cc1)C(=O)O` [compound 172], the IC50 is 1.1 nM.

Consider `C[C@@H](O)[C@H](NC(=O)[C@H](Cc1ccc(O)cc1)NC(=O)[C@H](CO)NC(=O)[C@@H]1CCCN1C(=O)[C@H](CO)NC(=O)[C@H](CC(=O)O)NC(=O)[C@@H](NC(=O)[C@@H]1CCCN1)[C@@H](C)O)C(=O)N[C@@H](Cc1ccc(O)cc1)C(=O)O` [compound 174], for which the IC50 worked out at 38 nM.

The molecule `CC[C@H](C)[C@H](NC(=O)[C@@H](N)[C@@H](C)O)C(=O)N[C@@H](CO)C(=O)N1CCC[C@H]1C(=O)N[C@@H](CO)C(=O)N[C@@H](Cc1ccc(O)cc1)C(=O)N[C@H](C(=O)N[C@@H](Cc1ccc(O)cc1)C(=O)N[C@@H](Cc1ccc(O)cc1)C(=O)O)[C@@H](C)O` [compound 175] registered an IC50 of 1040 nM.

`CC[C@H](C)[C@H](NC(=O)[C@@H](N)[C@@H](C)O)C(=O)N[C@@H](CC(=O)O)C(=O)N1CCC[C@H]1C(=O)N[C@@H](CO)C(=O)N[C@@H](Cc1ccc(O)cc1)C(=O)N[C@H](C(=O)N[C@@H](Cc1ccc(O)cc1)C(=O)N[C@@H](Cc1ccc(O)cc1)C(=O)O)[C@@H](C)O` [compound 176] showed an IC50 of 3.1 nM.

`C[C@H](NC(=O)[C@H](C)NC(=O)[C@@H](N)Cc1c[nH]cn1)C(=O)N[C@@H](CO)C(=O)N[C@@H](CC(N)=O)C(=O)N1CCC[C@H]1C(=O)N1CCC[C@H]1C(=O)N[C@@H](C)C(=O)N[C@@H](CCC(N)=O)C(=O)N[C@@H](Cc1ccc(O)cc1)C(=O)O` [compound 177] returned an IC50 of 2690 nM.

`C[C@H](NC(=O)[C@H](CO)NC(=O)[C@@H](N)Cc1c[nH]cn1)C(=O)N[C@@H](CO)C(=O)N[C@@H](CC(N)=O)C(=O)N1CCC[C@H]1C(=O)N[C@@H](CO)C(=O)N1CCC[C@H]1C(=O)N[C@@H](CCC(N)=O)C(=O)N[C@@H](Cc1ccc(O)cc1)C(=O)O` [compound 182] came in with an IC50 of 74 nM.

The assay is the same for the next values; noted with them: A*[…], Table 18b, Her2/neu-derived A1 binders.
`CC(C)C[C@H](NC(=O)[C@@H]1CCCN1C(=O)[C@H](CO)NC(=O)[C@H](C)NC(=O)[C@@H]1CCCN1)C(=O)N[C@@H](CC(=O)O)C(=O)N[C@@H](CO)C(=O)N[C@H](C(=O)N[C@@H](Cc1ccccc1)C(=O)N[C@@H](Cc1ccc(O)cc1)C(=O)O)[C@@H](C)O` [compound 193]: the IC50 came out at 1670 nM.

Take `CC(C)C[C@H](NC(=O)[C@@H]1CCCN1C(=O)[C@H](CO)NC(=O)[C@H](C)N)C(=O)N[C@@H](CC(=O)O)C(=O)N[C@@H](CO)C(=O)N[C@H](C(=O)N[C@@H](Cc1ccccc1)C(=O)N[C@@H](Cc1ccc(O)cc1)C(=O)O)[C@@H](C)O` [compound 195]: the IC50 worked out at 862 nM.

With `CSCC[C@H](N)C(=O)NCC(=O)N[C@@H](CC(=O)O)C(=O)N[C@@H](CC(C)C)C(=O)N[C@H](C(=O)N[C@@H](CC(=O)O)C(=O)N[C@@H](C)C(=O)N[C@@H](CCC(=O)O)C(=O)N[C@@H](CCC(=O)O)C(=O)N[C@@H](Cc1ccc(O)cc1)C(=O)O)C(C)C` [compound 197], the IC50 came to 2080 nM.

`CC(C)C[C@H](NC(=O)[C@H](CC(N)=O)NC(=O)[C@H](CC(=O)O)NC(=O)[C@H](Cc1ccccc1)NC(=O)[C@H](C)NC(=O)[C@@H]1CCCN1C(=O)[C@H](CO)NC(=O)[C@@H](N)Cc1ccccc1)C(=O)N[C@@H](Cc1ccc(O)cc1)C(=O)O` [compound 203] returned an IC50 of 581 nM.

The assay is the same for the next values; noted with them: A*[…], Table 18c, Mage2/3-derived A1 binders.
Take `CC(C)C[C@H](NC(=O)CNC(=O)[C@H](CC(C)C)NC(=O)[C@H](CS)NC(=O)[C@@H](NC(=O)[C@@H](N)C(C)C)[C@@H](C)O)C(=O)N[C@@H](CO)C(=O)N[C@@H](Cc1ccc(O)cc1)C(=O)O` [compound 215]: the IC50 was found to be 1140 nM.

`CC(C)[C@H](NC(=O)[C@H](CO)NC(=O)CN)C(=O)N[C@H](C(=O)NCC(=O)N[C@@H](CC(N)=O)C(=O)N[C@@H](Cc1c[nH]c2ccccc12)C(=O)N[C@@H](CCC(N)=O)C(=O)N[C@@H](Cc1ccc(O)cc1)C(=O)O)C(C)C` [compound 227] had an IC50 of 4240 nM.

Still in this assay, the particulars now being: binding affinity (IC50) to HLA-A*0101, running text.
For `CC[C@H](C)[C@H](N)C(=O)N[C@H](C(=O)N[C@@H](CC(=O)O)C(=O)N[C@@H](CCCCN)C(=O)N[C@@H](CC(N)=O)C(=O)N[C@@H](CO)C(=O)NCC(=O)N[C@@H](CC(C)C)C(=O)N[C@@H](Cc1ccc(O)cc1)C(=O)O)[C@@H](C)O` [CEA.467D3], the IC50 was ≤ 100 nM.

Take `NC(=O)CC[C@H](NC(=O)[C@@H]1CCCN1C(=O)[C@H](CO)NC(=O)[C@@H]1CCCN1C(=O)[C@H](CC(N)=O)NC(=O)[C@H](CO)NC(=O)[C@H](CC(=O)O)NC(=O)[C@H](CO)NC(=O)[C@@H](N)Cc1c[nH]cn1)C(=O)N[C@@H](Cc1ccc(O)cc1)C(=O)O` [CEA.616D3]: the IC50 was ≤ 100 nM.

In the case of `C[C@H](NC(=O)[C@H](CO)NC(=O)[C@@H](N)Cc1c[nH]cn1)C(=O)N[C@@H](CO)C(=O)N[C@@H](CC(N)=O)C(=O)N1CCC[C@H]1C(=O)N[C@@H](CO)C(=O)N1CCC[C@H]1C(=O)N[C@@H](CCC(N)=O)C(=O)N[C@@H](Cc1ccc(O)cc1)C(=O)O` [CEA.616], the IC50 is ≤ 100 nM.

For the molecule `CSCC[C@H](N)C(=O)N[C@@H](CCC(N)=O)C(=O)N[C@@H](CC(=O)O)C(=O)N[C@@H](CC(C)C)C(=O)N[C@H](C(=O)N[C@@H](CCC(N)=O)C(=O)N[C@@H](CCC(=O)O)C(=O)N[C@@H](CC(N)=O)C(=O)N[C@@H](Cc1ccc(O)cc1)C(=O)O)C(C)C` [MAGE2.247], the IC50 is ≤ 100 nM.

As for `CSCC[C@H](NC(=O)[C@@H](NC(=O)[C@@H](NC(=O)[C@@H]1CCCN1C(=O)[C@H](CC(C)C)NC(=O)[C@H](CO)NC(=O)[C@H](CO)NC(=O)[C@H](C)N)[C@@H](C)O)[C@@H](C)O)C(=O)N[C@@H](CC(N)=O)C(=O)N[C@@H](Cc1ccc(O)cc1)C(=O)O` [MAGE3.68], the IC50 is ≤ 100 nM.

For `CC(C)C[C@H](N)C(=O)N[C@H](C(=O)N[C@@H](CCC(N)=O)C(=O)N[C@@H](Cc1c[nH]cn1)C(=O)N[C@@H](Cc1ccccc1)C(=O)N[C@H](C(=O)N[C@@H](CCC(N)=O)C(=O)N[C@@H](CCC(=O)O)C(=O)N[C@@H](CC(N)=O)C(=O)N[C@@H](Cc1ccc(O)cc1)C(=O)O)C(C)C)[C@@H](C)O` [MAGE3.246], the IC50 was ≤ 100 nM.

The same assay, now with this note: read-out: A*[…]; Table 18b, Her2/neu-derived A1 binders.
As to `CC(C)C[C@H](NC(=O)[C@H](CC(N)=O)NC(=O)[C@H](CC(=O)O)NC(=O)[C@H](Cc1ccccc1)NC(=O)[C@H](CC(=O)O)NC(=O)[C@@H]1CCCN1C(=O)[C@@H](N)CO)C(=O)N[C@@H](Cc1ccc(O)cc1)C(=O)N[C@@H](Cc1ccc(O)cc1)C(=O)O` [compound 206], the IC50 stood at 74 nM.

The same assay, now with this note: result in words.
For `CSCC[C@H](NC(=O)[C@@H](N)C(C)C)C(=O)N[C@@H](CC(=O)O)C(=O)NCC(=O)N[C@H](C(=O)NCC(=O)N[C@@H](CO)C(=O)N1CCC[C@H]1C(=O)N[C@@H](Cc1ccc(O)cc1)C(=O)O)C(C)C` [HER2/neu.773D3], the “change of HLA-A*0101 binding affinity of analog” value (from here on “change … of analog”) is given as “significantly improved binding affinity”.

Consider `CC(C)C[C@H](NC(=O)[C@@H]1CCCN1C(=O)[C@@H](NC(=O)[C@H](C)N)[C@@H](C)O)C(=O)N[C@@H](CC(=O)O)C(=O)N[C@@H](CO)C(=O)N[C@H](C(=O)N[C@@H](Cc1ccccc1)C(=O)N[C@@H](Cc1ccc(O)cc1)C(=O)O)[C@@H](C)O` [HER2/neu.997T2], for which the “change … of analog” value is “significantly improved binding affinity”.

On to `CC(C)C[C@H](N)C(=O)N[C@H](C(=O)N[C@@H](CC(=O)O)C(=O)N[C@@H](CO)C(=O)N1CCC[C@H]1C(=O)N[C@@H](CCC(N)=O)C(=O)N1CCC[C@H]1C(=O)N[C@@H](CCC(=O)O)C(=O)N[C@@H](Cc1ccc(O)cc1)C(=O)O)[C@@H](C)O` [HER2/neu.1131D3], for which the “change … of analog” value is reported as “significantly improved binding affinity”.

For the origin of these results see patent EP1903056A2, “HLA-A1, -A2 -A3, -A24, -B7, and -B44 tumor associated antigen peptides and compositions” (priority 2002, dated 2004).
